This passage reports fluorescence ratio (Tl flux) results from PubChem BioAssay AID588366 (Johns Hopkins Ion Channel Center, 2011).

This is a selection; strong and weak results do not stand in their true shares. Activity calls are given as the source filed them.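 How the source made its calls: active means mean of duplicate thallium-flux fluorescence ratios in parental host cells more than 5 SD below the buffer control mean (cut at about 0.38 in these data); inactive means the rest.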

The assay in a line: thallium flux effects in parental CHO cells, counter-screen for KCNQ1 inhibitor project, cell-based, Tl flux (AID 588366).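 Further: ratio is peak minus minimum fluorescence divided by baseline fluorescence.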 The note with it: parental CHO-K1, FluxOR thallium flux fluorescence ratio; at 10 µM; hits give low values; zero means no signal rise above baseline. The method, boiled down: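 Assay system: untransfected parental CHO-K1 cells / Also added: depolarizing K2SO4 plus Tl2SO4 stimulus, each 12.5 mM in 5x stock / Timing: FluxOR dye loading 90 min, compound exposure 20 min, room temperature / Technique: real-time thallium-sensitive FluxOR dye fluorescence reading / Read-out: baseline-normalized fluorescence amplitude ratio, averaged over duplicates / Replicates: duplicates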
As to `COc1cc(C(=O)NCC2(N3CCOCC3)CCCCC2)cc(Cl)c1OC(C)C`, the fluorescence ratio (Tl flux) is inactive: 0.476.
In the case of `CCC1=CC2Cc3nc4ccc(Cl)cc4c(N)c3C(C1)C2` (configuration not stated), the fluorescence ratio (Tl flux) is inactive: 0.517.
